Experiment: passive permeability, PAMPA, ADME assay (AID 1508612)
Conditions: pH 7.4, 30.0 min, 50.0 µM

In the case of `CC(=O)NC(SC(=S)N(C)C)C(Cl)(Cl)Cl` (stereo unspecified), the Papp is reported as 63.5 ×10⁻⁶ cm/s.
